# miR-21 FLuc: miR-21 reporter, rising signal. HeLa miR-21 FLuc reporter, luciferase, 48 h. Potency, µM (titrated, usually from 38.3 µM), without a hit: at the top dose reporter change, positive = more light. 340,000 tested, under 10 active. AID 2288; active = well fitted rising curve with a large enough effect; inconclusive = small, poorly fitted or top-dose-only effect; inactive = no such curve, though single readings can be large or run the other way;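 also: % of control where 0% means no effect; miR-21 action dims this reporter so a rising signal means less miR-21 action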
#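 Compounds were titrated across several concentrations (up to approximately 40 uM) and incubated 48 hours with HeLa miR-21-FLuc reporter cells (miR-21 target sequence downstream of FLuc, endogenous miR-21). Readout was firefly luciferase luminescence after lytic detection reagent.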
# PINK1 expr mod: modulators of PINK1 expression; PINK1 immunofluorescence, high-content cytometry, 24 h; Potency, µM (highest dose often 76.6 µM), for inactives: top-dose activation (PINK1 increase), most hits filed as activators; 0.2% of 410,000 active; AID 624263; active = well fitted activation curve with a large enough effect; inconclusive = small, poorly fitted or top-dose-only effect; cell line not stated here; note: potency is the fitted concentration of half-maximal effect; % of control where 0% means no effect; nearly all actives have a fitted effect of over 65% in size
#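 PINK1 protein level read as immunofluorescence by microplate cytometer in a fixed, stained stable cell line after 24 h exposure to five compound concentrations, with CCCP as control.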
# GALK inhibitor: inhibitors of human galactokinase; AID 1868; Purified GALK, Kinase-Glo residual ATP luminescence; P51570; Potency, µM (doses to about 57.5 µM), for the others: at the top dose activity change, negative = inhibition, actives largely listed as inhibitors; 0.007% of 270,000 active; note: potency is the fitted concentration of half-maximal effect; % is set by controls: 0 for no effect and ±100 for the full control effect
#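 Compounds were pin-transferred into ATP buffer (35 uM final), then GALK plus galactose (5 nM, 100 uM final) was added. After 1 h at room temperature, Kinase-Glo Plus was added and luminescence read after 10 min.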
# rTrxR1 inhibitor: inhibitors of rat thioredoxin reductase 1 | Potency, µM (highest dose often 114 µM), for inactives: at the highest dose activity change, negative = inhibition, usual class: inhibitors | recombinant rTrxR1, NADPH fluorescence consumption, selenite substrate | AID 588453 | 1% of 390,000 active; note: potency is the fitted concentration of half-maximal effect; % is set by controls: 0 for no effect and ±100 for the full control effect; nearly all actives have a fitted effect of over 65% in size
#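 Rat TrxR1 (90 nM in the dispensed reagent) was pre-reduced with 400 uM NADPH for 5 min at room temperature, then incubated with compound for 15 min. After 400 uM selenite was added, NADPH fluorescence (Ex 340/Em 450 nm) was followed for 8 min.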
# TrxR1 substrate: rat thioredoxin reductase 1 substrate activity; purified TrxR1 substrate turnover, NADPH consumption readout; 0.01% of 390,000 active; O89049; Potency, µM (doses to about 114 µM), for inactives: top-dose activity change, negative = substrate turnover; note: potency is the fitted concentration of half-maximal effect; % is set by controls: 0 for no effect and ±100 for the full control effect; nearly all actives have a fitted effect of over 50% in size
#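 Rat TrxR1, dispensed at 90 nM, was prereduced with 400 uM NADPH (final) for 5 min at ~22 deg C, then incubated with compound 15 min before 400 uM selenite. A first-read NADPH fluorescence drop versus no-compound background flagged substrates.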
# Active calls of the source: *; ? = inconclusive; / = no result given; [ ] = dose if it differs, or a comment. Compounds with a hit are over-represented: about 1.1% of the library has one in this group of screens. Unless noted, calls come from the whole dose curve; as a rule, active = well fitted curve in the direction sought with a large enough effect; inconclusive = small, poorly fitted or top-dose-only effect, or another doubt; inactive = no such curve, though single readings can be large; an effect the other way counts as inactive or inconclusive.
# Short keys – A = miR-21 FLuc; B = PINK1 expr mod; C = GALK inhibitor; D = rTrxR1 inhibitor; E = TrxR1 substrate
COc1ccc(NC(=O)Cn2c(SCc3ccc(C)cc3)nc3cccnc32)c(OC)c1
  A: -19%	B: 1%	C: /	D: 9%	E: -5%

CCOC(=O)/C(=C\c1cccnc1)C(=O)c1cc(C(C)=O)c(Nc2ccccc2)s1
  A: ?	B: -3%	C: -1%	D: 3.2µM*	E: -6%

CCOC(=O)NC(=O)/C(C#N)=N\Nc1ccc(Cl)cc1
  A: -3%	B: -1%	C: 0%	D: 12%[57.1 µM]	E: -14%

CCOC(=O)NC(=O)/C(C#N)=N\Nc1cccc(Cl)c1
  A: 1%	B: 16µM*	C: 1%	D: -1%	E: -14%

COC(=O)C1=C(NC(=O)COc2ccc3ccccc3c2)CCS1
  A: -11%	B: 9%	C: 0%	D: 79µM*	E: 30%

CCc1ccc(N2CCn3c2nc2c3c(=O)n(C/C=C/c3ccccc3)c(=O)n2C)cc1
  A: 0%	B: -1%	C: /	D: 28%	E: 12%[11.4 µM]

COCCN(C(=O)CCl)C(C(=O)NC1CCCCC1)c1ccccc1C (stereo not drawn)
  A: ?	B: -2%	C: 1%	D: 28µM*	E: 3%

O=C(NC1CCCC1)C(c1ccc(F)cc1)N(Cc1ccccc1Cl)C(=O)CCl (stereo not drawn)
  A: -3%	B: -2%	C: 0%	D: 32µM*	E: -1%

COCCN(C(=O)CCC(=O)Nc1cc(C)on1)C(C(=O)NC1CCCC1)c1ccccc1C (stereo not drawn)
  A: 1%	B: 0%	C: 1%	D: 6%	E: 7%

CC1CCN(c2oc(-c3ccc(OCc4ccccc4Cl)cc3)nc2C#N)CC1
  A: /	B: 1%	C: /	D: 25%	E: 44%

COc1ccccc1-c1nn(CCC(=O)Nc2ccc(C)cc2)c2nc(C)cc(C)c12
  A: 1%	B: -4%	C: /	D: 10%	E: 10%

COc1ccccc1N1CCN(c2nc(CNC(=O)c3ccc4c(c3)OCO4)nc3ccccc23)CC1
  A: /	B: -1%	C: /	D: /	E: /

O=C(Nc1nccs1)c1ccc(Br)o1
  A: -42%	B: /	C: -2%	D: -5%	E: 9%[57.1 µM]

O=C(/C=C/c1ccc(Br)o1)NCc1ccccc1
  A: 0%	B: -1%	C: 1%	D: 4µM*	E: 2%

O=C(/C=C/c1ccc(Br)o1)Nc1nccs1
  A: -34%	B: 4%	C: 10%	D: 28µM*	E: 1%

# The list goes on:
# Short keys – A = miR-21 FLuc; B = PINK1 expr mod; C = GALK inhibitor; D = rTrxR1 inhibitor; E = TrxR1 substrate
CC(=O)c1ccc(C(=O)N2CCc3c(cnc(C)c3CNC(=O)c3ccc4c(c3)OCO4)C2)s1
  A: /	B: -1%	C: /	D: /	E: /

COCCCNc1ncnc2sc(C(=O)N3CCCCC3)c(C)c12
  A: /	B: -1%	C: /	D: /	E: /

O=c1[nH]n(-c2ccc(Cl)cc2)c(=O)c(Cl)c1Cl
  A: 3%	B: 3%[38.3 µM]	C: 3%	D: 22µM*	E: 10%[57.1 µM]

Cc1[nH]n(-c2ccccc2)c(=O)c1-c1ccc(Cl)cc1
  A: -8%	B: -1%	C: -1%	D: 1%	E: 2%

CC(C)=NOc1cc(NC(=O)CCl)cc([N+](=O)[O-])c1
  A: ?	B: -2%	C: /	D: 2.8µM*	E: -17%

O=C(CCl)Nc1cc(SCC(O)CO)cc([N+](=O)[O-])c1 (stereo not drawn)
  A: ?	B: -2%	C: -3%	D: 5.6µM*	E: 3%

CCOc1ccc(-c2nc(Cn3c(=O)cc(C)c4c(C)nn(-c5ccc(C)cc5)c43)c(C)o2)cc1
  A: -9%	B: -1%	C: /	D: 19%[57.1 µM]	E: 4%[57.1 µM]

Cc1ccccc1CNC(=O)Nc1ccc2c(c1)N(C)C(=O)c1ccccc1S2
  A: -3%	B: 21%	C: /	D: 12%	E: 7%

COCCNC(=O)c1cc2cc3ccc(OC)cc3nc2o1
  A: -38%	B: -1%	C: -5%	D: 71µM*	E: 868%

O=C(CCS(=O)(=O)c1cccc2nonc12)Nc1c(F)cccc1F
  A: 5%	B: 2%	C: /	D: 32µM*	E: 10%[2.29 µM]

Cc1cccc(C)c1NC(=O)CCS(=O)(=O)c1cccc2nonc12
  A: -1%	B: 4%	C: -1%	D: -23%	E: 1%

Cc1ccc(CS(=O)(=O)c2ncc(Cl)c(C(=O)Nc3nc4ccc(F)cc4s3)n2)cc1
  A: ?	B: -1%	C: /	D: ?	E: -3%

CC(=O)Nc1ccc(NC(=O)c2nc(S(=O)(=O)Cc3ccc(F)cc3)ncc2Cl)cc1
  A: ?	B: 5%	C: /	D: 1.3µM*	E: -2%

Cc1ccc(CNC(=O)c2nc(S(=O)(=O)Cc3ccc(C)cc3)ncc2Cl)cc1
  A: 12%	B: 8%	C: /	D: ?	E: 3%

Cc1ccc(NC(=O)c2nc(S(=O)(=O)Cc3ccc(F)cc3)ncc2Cl)cc1C
  A: ?	B: 9%	C: /	D: 2.8µM*	E: 8%

# New compounds follow
# Short keys – A = miR-21 FLuc; B = PINK1 expr mod; C = GALK inhibitor; D = rTrxR1 inhibitor; E = TrxR1 substrate
COc1ccc(NC(=O)c2c(NCc3ccc(C)o3)sc3c2CCCCC3)c(OC)c1
  A: -13%	B: 0%	C: /	D: 20µM*	E: -9%[57.1 µM]

COc1ccc(NC(=O)c2c(NCc3sccc3C)sc3c2CCCCC3)c(OC)c1
  A: 2%	B: 2%	C: /	D: 18µM*	E: -2%[57.1 µM]

COc1ccc(OC)c(NC(=O)c2c(NCc3cccs3)sc3c2CCCCC3)c1
  A: -9%	B: 0%	C: /	D: ?	E: 0%[57.1 µM]

COc1ccccc1NC(=O)c1c(NCc2sccc2C)sc2c1CCCCC2
  A: -4%	B: 4%	C: /	D: ?	E: 4%[57.1 µM]

COc1ccc(OC)c(NC(=O)c2c(NCc3cccs3)sc3c2CCCC3)c1
  A: 16%	B: 6%	C: /	D: 45µM*	E: -5%

Cc1nn(-c2ccc(N3CCCCC3)nn2)c(C)c1CCC(=O)NCc1ccccc1
  A: -14%	B: 1%	C: /	D: 14%[57.1 µM]	E: 2%[57.1 µM]

COc1ccc(Cn2c(CNS(=O)(=O)c3ccc4c(c3)CCCC4)nc3cccnc32)cc1
  A: 24%	B: 7%	C: /	D: 13%[57.1 µM]	E: 4%[57.1 µM]

Cc1cccc(C)c1Nc1nc2ccccc2nc1NS(=O)(=O)c1ccccc1
  A: 18%	B: -1%	C: /	D: ?	E: -8%

CCOC(=O)CS(=O)(=O)c1nc(-c2ccc(F)cc2)cc(C(F)(F)F)n1
  A: ?	B: -1%	C: 0%	D: ?	E: 15%[57.1 µM]

CS(=O)(=O)c1nc(-c2ccc(F)cc2)cc(C(F)(F)F)n1
  A: ?	B: -2%	C: -4%	D: 18µM*	E: 18%

COc1ccc(-c2cc(C(F)(F)F)nc(S(C)(=O)=O)n2)cc1
  A: ?	B: -1%	C: -2%	D: 10µM*	E: 6%

CCc1cccc(C)c1NC(=O)c1cc(S(=O)(=O)N(C)Cc2ccccc2)ccc1F
  A: 26%	B: 3%	C: /	D: 23%[57.1 µM]	E: 2%[57.1 µM]

COc1ccc(-c2cc(=O)c3c(OC)c(OC)c(OC)c(OC)c3o2)cc1OC
  A: -2%	B: 1%	C: -4%	D: -21%	E: -4%

COc1ccc(-c2ccccc2)c2oc(-c3ccco3)cc(=O)c12
  A: /	B: 2%	C: /	D: 32µM*	E: 7%[57.1 µM]

O=C(O)c1ccc2nc(-c3ccco3)c(-c3ccco3)nc2c1
  A: 3%	B: -2%	C: 2%	D: 2.2µM*	E: 15%

# Single records, as listed above. Order of values: miR-21 FLuc, PINK1 expr mod, GALK inhibitor, rTrxR1 inhibitor, TrxR1 substrate
# Profile of O=C(O)c1ccc2nc(-c3ccco3)c(-c3ccco3)nc2c1 → 3%, -2%, 2%, 2.2µM*, 15%
# Profile of Cc1nn(-c2ccc(N3CCCCC3)nn2)c(C)c1CCC(=O)NCc1ccccc1 → -14%, 1%, /, 14%[57.1 µM], 2%[57.1 µM]
# Profile of CCOC(=O)CS(=O)(=O)c1nc(-c2ccc(F)cc2)cc(C(F)(F)F)n1 → ?, -1%, 0%, ?, 15%[57.1 µM]
# Profile of Cc1cccc(C)c1Nc1nc2ccccc2nc1NS(=O)(=O)c1ccccc1 → 18%, -1%, /, ?, -8%

# Later entries:
# Short keys – A = miR-21 FLuc; B = PINK1 expr mod; C = GALK inhibitor; D = rTrxR1 inhibitor; E = TrxR1 substrate
CCC(C)NC(=O)c1ccc2nc(-c3ccco3)c(-c3ccco3)nc2c1 (stereo not drawn)
  A: /	B: 3%	C: /	D: 2.8µM*	E: -10%

O=C(Nc1cccc(C(F)(F)F)c1)c1ccc2nc(-c3ccco3)c(-c3ccco3)nc2c1
  A: 16%	B: 0%	C: -3%	D: 5µM*	E: -5%

COc1ccc(CCNC(=O)c2ccc3nc(-c4ccco4)c(-c4ccco4)nc3c2)cc1OC
  A: 29%	B: 2%	C: -2%	D: 2.5µM*	E: -4%

CCC(C)NC(=O)c1ccc2nc(Cc3ccccc3)oc2c1 (stereo not drawn)
  A: -20%	B: 1%	C: /	D: 14%[57.1 µM]	E: 3%[57.1 µM]

Cc1cccc(Cn2c(COc3ccccc3)nc3ccccc32)c1
  A: -14%	B: 4%	C: /	D: 24%[11.4 µM]	E: -4%

COCc1ccc(C(=O)N2CCOc3ccc(CN4CCN(c5ccc(F)cc5)CC4)cc3C2)o1
  A: /	B: 0%	C: /	D: /	E: /
